This note sets out measurements from PMC5578695.

By UniProt entry, the sequences of proteins in these tests, tags left out. Where a name states a change or a piece, a line headed by the entry shows the natural chain unless it says otherwise.
UniProt P38920: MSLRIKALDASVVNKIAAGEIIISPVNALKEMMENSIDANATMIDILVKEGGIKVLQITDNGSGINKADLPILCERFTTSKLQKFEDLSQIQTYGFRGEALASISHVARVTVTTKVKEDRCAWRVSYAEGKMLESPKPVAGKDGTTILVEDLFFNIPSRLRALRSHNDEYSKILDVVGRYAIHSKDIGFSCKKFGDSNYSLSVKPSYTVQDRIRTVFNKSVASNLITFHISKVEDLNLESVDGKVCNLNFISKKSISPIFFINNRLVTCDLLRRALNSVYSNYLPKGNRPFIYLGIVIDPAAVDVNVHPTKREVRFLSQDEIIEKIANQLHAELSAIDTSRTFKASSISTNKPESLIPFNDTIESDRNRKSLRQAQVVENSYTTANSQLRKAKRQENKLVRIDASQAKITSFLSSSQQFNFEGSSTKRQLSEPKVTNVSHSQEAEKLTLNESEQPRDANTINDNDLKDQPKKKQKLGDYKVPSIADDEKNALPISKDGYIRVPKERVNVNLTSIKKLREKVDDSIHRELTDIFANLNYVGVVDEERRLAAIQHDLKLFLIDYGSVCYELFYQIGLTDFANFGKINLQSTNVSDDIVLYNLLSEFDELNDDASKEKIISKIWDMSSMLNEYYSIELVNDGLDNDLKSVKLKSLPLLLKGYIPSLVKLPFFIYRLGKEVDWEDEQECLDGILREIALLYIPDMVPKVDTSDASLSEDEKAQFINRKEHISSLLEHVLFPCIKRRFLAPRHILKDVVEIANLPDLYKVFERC

The target in the assay is lexA-Mlh1 (S. cerevisiae) (UniProt P38920). The experiment in a line: two-hybrid; yeast strain L40; lexA-Mlh1 and Gal4 activation domain-Mlh3 (amino acids 481-715) or mutant derivatives; LACZ reporter measured by the ONPG assay for β-galactosidase activity (Miller units); at least three independent assays.

As to “Gal4-mlh3-45 (amino acids 481-715) (from UniProt Q12083 481-715) (domain or fragment)”, the β-gal units in the two-hybrid assay is 3.3 β-gal units.

“Gal4-mlh3-60 (amino acids 481-715 with the last 11 residues of Pms1) (from UniProt Q12083 481-715) (domain or fragment)” showed a Miller units of β-galactosidase activity in the two-hybrid assay (Miller units of β-galactosidase activity) of 14.2.

For “Gal4-Mlh3 (amino acids 481-715) (from UniProt Q12083 481-715) (domain or fragment)”, the β-gal units in the two-hybrid assay was 2.6 β-gal units.
